Experimental findings from patent publication US6077872A (priority 1998, dated 2000) are described below.

For data set [1], the system named is ovariectomized rats with osteoporosis. Conditions: 200 mg element calcium/kg/d; model-control 11.3 ± 4.7.
Data set [2] has as its system preschool children.
Data set [3] can be described thus: in vivo. To be noted: dog, po, 200 mg/kg.

Molecules are shown by their SMILES.

The AUC is the area under the concentration-time curve, a measure of exposure. A low value points to less exposure. For `O=C(O)[C@H](O)[C@@H](O)CO` [calcium L-threonate], in data set [1], the “S (work to yield or break femur)” value stood at 23.2. Further, in data set [2] (2 bags/day of 150 mg element calcium, 3 months), the “extent of BMDs' increase” value was determined as 23.22%. Also, the “extent of BMDs' increase relative to the calcium carbonate group” value in data set [2] (in vivo) is “about twice”. The molecule further showed an AUC in data set [3] of 232 µg·h/mL.
